scFv variants of Ab-14 (heavy chain) against a SARS-CoV-2 spike peptide

All variants were tested on one target, the spike HR2 peptide PDVDLGDISGINAS (SARS-CoV-2).

Each scFv is VH, a (GGGGS)3 linker, VL, as in the parent Ab-14, and differs from it in the CDRs of the heavy chain only.
VH: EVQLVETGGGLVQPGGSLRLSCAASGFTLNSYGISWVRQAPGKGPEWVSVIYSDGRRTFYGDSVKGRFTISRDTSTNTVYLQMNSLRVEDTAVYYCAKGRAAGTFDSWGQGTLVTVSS
VL: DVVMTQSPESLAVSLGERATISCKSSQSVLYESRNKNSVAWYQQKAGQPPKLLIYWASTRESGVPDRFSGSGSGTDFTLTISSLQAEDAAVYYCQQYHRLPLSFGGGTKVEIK

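This is the validation round: designs drawn from the data on random variants, tested in the same kind of assay. Group labels follow the data file (Ctrl: baseline library sampled from a position-specific scoring matrix, with some repeated check sequences; En: ensemble of fine-tuned language models; GP: Gaussian process model; GPLM: also part of the Gaussian process libraries; HC: hill climbing; Gen: genetic algorithm; Gibbs: Gibbs sampling; a sequence that several methods proposed may carry one label only). The scFvs were displayed on barcoded MATa yeast, the peptide on MATalpha yeast. Mating (16 h, 30 °C) was followed by selection of diploids and sequencing of their barcodes. A regression on co-assayed BCL2-family reference pairs converts the normalised counts of each replicate to an apparent Kd. The assay was run in six technical replicates.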

The parent's heavy chain CDRs are GFTLNSYGIS, VIYSDGRRTFYGDSVK, GRAAGTFDS; each variant's own CDRs replace them letter for letter. The read-out is the apparent dissociation constant on a log10 scale (nM): the lower, the stronger. Where no diploid with the target was found in that replicate, the entry reads "nd": below detection, most likely a poor binder, though not proof of it. A sequence measured in both rounds can read differently, since the two assays cover different ranges.

{"CDR-H1": "GFDLNEYGIS", "CDR-H2": "VIYADGMRTAYADDVK", "CDR-H3": "GENAGTFVV", "group": "En_Gen", "log10 Kd (nM) by replicate": "nd / nd / 2.14 / nd / nd / nd"}
{"CDR-H1": "GFNLNSYGIS", "CDR-H2": "VIYSDGRRTFYADEVK", "CDR-H3": "GQAAGTFDS", "group": "GPLM_Gen", "log10 Kd (nM) by replicate": "1.20 / 0.45 / 0.37 / 0.90 / 0.85 / 0.43"}
{"CDR-H1": "GFTLNSYGIS", "CDR-H2": "VIYSDGRRTFYSDRVK", "CDR-H3": "GQAAGTFDS", "group": "GP_Gibbs", "log10 Kd (nM) by replicate": "nd / 0.55 / 0.93 / 1.69 / 1.16 / 1.38"}
{"CDR-H1": "GFDLNEYGIS", "CDR-H2": "VIYADGRRTFYVDSVK", "CDR-H3": "GENAGTFDS", "group": "En_HC", "log10 Kd (nM) by replicate": "-0.22 / -0.22 / -0.35 / -0.31 / -0.21 / -0.14"}
{"CDR-H1": "GFSLDEYGIS", "CDR-H2": "VIYADGVRKSYMNSVK", "CDR-H3": "GNITGWLFA", "group": "En_Gibbs", "log10 Kd (nM) by replicate": "nd / nd / nd / nd / nd / nd"}
{"CDR-H1": "GFDLNSYGIS", "CDR-H2": "VIYSDGRRTFYQDKVK", "CDR-H3": "GQAAGTFDD", "group": "GP_Gibbs", "log10 Kd (nM) by replicate": "0.68 / 0.30 / 0.41 / 0.28 / 0.79 / 1.42"}
{"CDR-H1": "GFDFQEYGIS", "CDR-H2": "VIYADGQRAVYSDAVK", "CDR-H3": "GNIGAIFSD", "group": "En_Gibbs", "log10 Kd (nM) by replicate": "nd / nd / 2.17 / nd / nd / 2.10"}
{"CDR-H1": "GFWLNSYGIS", "CDR-H2": "VIYSDGRRTFYGDSVK", "CDR-H3": "GKTAGTFDT", "group": "GP_Gibbs", "log10 Kd (nM) by replicate": "nd / nd / 0.65 / 1.86 / 1.66 / 0.75"}
{"CDR-H1": "GFDLNSYGIS", "CDR-H2": "VIYSDGRRTFYGDSVK", "CDR-H3": "GRAAGKFRS", "group": "GP_HC", "log10 Kd (nM) by replicate": "nd / nd / nd / nd / nd / nd"}
{"CDR-H1": "GFTLNDYGIS", "CDR-H2": "VIYSDGRRTFYGDSVK", "CDR-H3": "GKTAGTFDT", "group": "GP_Gibbs", "log10 Kd (nM) by replicate": "0.49 / 0.41 / 0.21 / 0.00 / 0.05 / 0.40"}
{"CDR-H1": "GFDLNEYGIS", "CDR-H2": "VIYADGRRTFYADSVK", "CDR-H3": "GNSAGTFNV", "group": "En_HC", "log10 Kd (nM) by replicate": "-0.36 / -0.49 / -0.61 / -0.62 / -0.64 / -0.65"}
{"CDR-H1": "GFTLNQYGIS", "CDR-H2": "VIYSDGMRTFYSDSVK", "CDR-H3": "GRAAGTFDS", "group": "GPLM_HC", "log10 Kd (nM) by replicate": "0.39 / 0.92 / 0.46 / 1.03 / 0.68 / 0.38"}
{"CDR-H1": "GFNINEYGIS", "CDR-H2": "VIYADGKRTAYSESVK", "CDR-H3": "GNSAGTFNH", "group": "En_Gibbs", "log10 Kd (nM) by replicate": "0.06 / -0.19 / -0.23 / -0.19 / -0.08 / -0.04"}
{"CDR-H1": "GFDLEDYGIS", "CDR-H2": "VIYADGMRTFYSDSVK", "CDR-H3": "GEIAGTFDS", "group": "En_HC", "log10 Kd (nM) by replicate": "-0.19 / -0.13 / -0.31 / 0.11 / -0.38 / 0.03"}
{"CDR-H1": "GFDLNEYGIS", "CDR-H2": "VIYADGRRTAYIDSVK", "CDR-H3": "GKNAGTFDV", "group": "En_HC", "log10 Kd (nM) by replicate": "-0.49 / -0.29 / -0.43 / -0.59 / -0.66 / 0.12"}
{"CDR-H1": "GFTLESYGIS", "CDR-H2": "VIYSDGRRTFYGDSVK", "CDR-H3": "GRAAGTFTD", "group": "GP_HC", "log10 Kd (nM) by replicate": "nd / nd / nd / nd / nd / 2.08"}
{"CDR-H1": "GFALNSYGIS", "CDR-H2": "VIYSDGRRTFVGDSVK", "CDR-H3": "GRAAGTFDL", "group": "Ctrl", "log10 Kd (nM) by replicate": "nd / nd / nd / nd / nd / nd"}
{"CDR-H1": "MFELNSYGIS", "CDR-H2": "VIYADGRRTFYGDSVK", "CDR-H3": "GRAAGTFDS", "group": "GP_Gen", "log10 Kd (nM) by replicate": "0.97 / 0.82 / 2.81 / 1.57 / 1.90 / 1.99"}
{"CDR-H1": "GFSLNSYGIS", "CDR-H2": "VIYSDGKRTFYGDSVK", "CDR-H3": "GQTAGTFDS", "group": "GPLM_Gen", "log10 Kd (nM) by replicate": "-0.01 / 0.59 / 0.00 / 0.01 / 0.08 / 0.43"}
{"CDR-H1": "GFDLNEYGIS", "CDR-H2": "VIYADGRRTFYADSVK", "CDR-H3": "GNVAGTFVS", "group": "En_HC", "log10 Kd (nM) by replicate": "1.10 / 1.22 / 1.00 / 0.74 / 0.76 / 0.61"}
{"CDR-H1": "GFDLNEYGIS", "CDR-H2": "VIYADGMRTAYSDSVK", "CDR-H3": "GGVAGTFDL", "group": "En_Gen", "log10 Kd (nM) by replicate": "-0.98 / -0.91 / -0.65 / -1.31 / -0.75 / -0.92"}
{"CDR-H1": "GFTLNSYGIT", "CDR-H2": "VIYSDGRRTFYGPSVK", "CDR-H3": "GRAAGTFDS", "group": "Ctrl", "log10 Kd (nM) by replicate": "nd / nd / nd / nd / nd / nd"}
{"CDR-H1": "GFDINEYGIS", "CDR-H2": "VIYADGMRKAVEQNVK", "CDR-H3": "GENSRSVVI", "group": "En_Gibbs", "log10 Kd (nM) by replicate": "nd / nd / nd / nd / nd / nd"}
{"CDR-H1": "GFNLDEYGIS", "CDR-H2": "VIYADGRRTFYADSVK", "CDR-H3": "GQHAGTFDT", "group": "En_HC", "log10 Kd (nM) by replicate": "-0.10 / -1.18 / -0.87 / -1.12 / -0.74 / -0.46"}
{"CDR-H1": "GFYLNSYGIS", "CDR-H2": "VIYADGRRTFYGDSVK", "CDR-H3": "GKAAGTFDS", "group": "GPLM_Gen", "log10 Kd (nM) by replicate": "1.12 / 1.02 / 1.12 / 0.99 / 1.22 / 0.85"}
{"CDR-H1": "GFSLNSYGIS", "CDR-H2": "VIYSDGRRTFYQDSVK", "CDR-H3": "GNAAGTFDS", "group": "GPLM_Gen", "log10 Kd (nM) by replicate": "0.37 / 0.06 / 0.23 / 0.30 / -0.10 / 0.47"}
{"CDR-H1": "GFTINMYGIS", "CDR-H2": "VIYSDGRRTFYGDSVK", "CDR-H3": "GRGAGYFSS", "group": "Ctrl", "log10 Kd (nM) by replicate": "nd / nd / nd / nd / nd / nd"}
{"CDR-H1": "KFQLNSYGIS", "CDR-H2": "VIYSDGRRTFYGDSVK", "CDR-H3": "GRTAGTFDS", "group": "GPLM_Gibbs", "log10 Kd (nM) by replicate": "nd / nd / nd / nd / nd / 1.15"}

Again, the first 4 entries without any signal:

CDR-H1,CDR-H2,CDR-H3,group,log10 Kd (nM) by replicate
GFSLDEYGIS,VIYADGVRKSYMNSVK,GNITGWLFA,En_Gibbs,nd / nd / nd / nd / nd / nd
GFDLNSYGIS,VIYSDGRRTFYGDSVK,GRAAGKFRS,GP_HC,nd / nd / nd / nd / nd / nd
GFALNSYGIS,VIYSDGRRTFVGDSVK,GRAAGTFDL,Ctrl,nd / nd / nd / nd / nd / nd
GFTLNSYGIT,VIYSDGRRTFYGPSVK,GRAAGTFDS,Ctrl,nd / nd / nd / nd / nd / nd

The parent sequence was in this pool as ten entries: three were never detected, three once, and four in most replicates, with averages from 0.34 to 2.37. The authors averaged sequences with at least three values out of six and counted those with two or fewer as poor binders. Nonspecific signal, from three strains lacking the peptide, appeared in 1% of pairings of all heavy chain designs, centred on 2.08 (5% of these signals below 0.84); values are not corrected for it.

Source: Li et al. 2023 (doi:10.1038/s41467-023-39022-2), MIT Lincoln Laboratory and A-Alpha Bio; data file from the FLAb repository.